Source: patent US10655163B2, “Methods, kits, and systems for multiplexed detection of target molecules and uses thereof” (THE GENERAL HOSPITAL CORPORATION, priority 2013, dated 2020)

How the values were obtained:
[1] = tested on: A431 single cells; assay type: cell-based, human
[2] = tested on: human cancer cell lines; assay: Control study: cell lines treated with cetuximab, ABCD protein profiling; assay type: cell-based; details: FIG. 15B
Text: Having established feasibility of inter- and intrapatient analyses in clinical samples, it was next sought to explore the feasibility of monitoring cancer treatment over time. To this end, it was first sought to determine if known pathway responses to different drug treatments could be discriminated. […] Notable examples include pS6RP for targeted treatments, and pH2A.X, pATM/ATR (phospho-ataxia telangiectasia mutated/ATM- and Rad3-related) substrate, and cleaved PARP for DNA-damaging agents. Unexpected results, such as epigenetic histone modifications after treatment with a phosphatidylinositol 3-kinase inhibitor (PI3Ki) was also found (FIG. 15E). For additional in vitro validation of treatment, HT1080 fibrosarcoma cell lines were treated with four different doses of taxol.
Drug treatments of cell lines. To test the effect of drug treatment on protein expression levels, the cell lines were treated with a number of different chemotherapeutic or molecularly targeted drugs. A431 cell lines were dosed with gefitinib (Selleck Chemicals) in medium with 1% dimethyl sulfoxide (DMSO) for 12 hours at a concentration of 10 μM. […]

Row | Compound | average expression value, Treated: CD56 [1] | average expression value, Treated: Dimethyl-histone H3 (Lys36) [1] | average expression value, Treated: FGFR4 [1] | average expression value, Treated: Ku80 [1] | average expression value, Treated: Phospho-S6RP [1] | average expression value, Treated: Phospho-histone H3 [1] | drug inhibition (protein markers) [2]
1 | COc1cc2ncnc(Nc3ccc(F)c(Cl)c3)c2cc1OCCCN1CCOCC1 [gefitinib] | 334.4 | 86.9 | 114.1 | 120.6 | 58.4 | 982.0 | –
2 | cetuximab | – | – | – | – | – | – | expected drug inhibition
